“And” between values parts separate entries of the source, which are not always exact repeats. Identical values can stand only once.
Experiments:
[1] = target: E16K, E16K/N45Y, and E16K/S47N; assay: flow cytometry on cells; yeast surface display; binder variant on EBY100 yeast, 100 nM biotinylated TfR in PBSF pH 7.4 on ice, detected with SAPE; expression by anti-c-Myc FITC; 50,000 singlets
[2] = target: TB14.3A E13V/T78I (S4.7), yeast surface displayed; assay: as above

The chains behind the UniProt entries cited, without tags or fusion partners. Residues count along the entry.
UniProt P02786, 101-760: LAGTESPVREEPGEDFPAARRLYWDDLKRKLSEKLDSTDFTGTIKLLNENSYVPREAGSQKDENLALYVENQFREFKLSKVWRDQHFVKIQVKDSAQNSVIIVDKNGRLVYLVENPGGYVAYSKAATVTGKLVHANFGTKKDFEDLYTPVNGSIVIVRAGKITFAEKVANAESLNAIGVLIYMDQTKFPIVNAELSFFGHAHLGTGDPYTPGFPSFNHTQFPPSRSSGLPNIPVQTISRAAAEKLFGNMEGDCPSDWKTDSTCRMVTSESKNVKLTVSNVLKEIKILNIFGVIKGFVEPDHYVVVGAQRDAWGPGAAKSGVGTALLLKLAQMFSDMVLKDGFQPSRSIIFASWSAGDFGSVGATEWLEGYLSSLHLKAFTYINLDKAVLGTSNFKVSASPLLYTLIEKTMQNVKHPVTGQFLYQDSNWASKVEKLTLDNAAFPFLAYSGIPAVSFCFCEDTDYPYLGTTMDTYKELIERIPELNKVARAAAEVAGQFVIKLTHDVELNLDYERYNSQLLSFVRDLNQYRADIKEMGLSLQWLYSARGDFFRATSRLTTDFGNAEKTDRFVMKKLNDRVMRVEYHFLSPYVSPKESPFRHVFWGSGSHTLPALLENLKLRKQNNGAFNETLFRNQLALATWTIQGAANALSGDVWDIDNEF

For “Human transferrin receptor 1 (TfR), avi-tagged, biotinylated (from UniProt P02786 101-760)”, the binding signal over background (times the background) [1] was 7 and 11 and the fold binding signal over TB14.3A [2] was 10 fold.
